Data on one compound can be found in patent publication US11203601B2, “Tricyclic compounds as glycogen synthase kinase 3 (GSK3) inhibitors and uses thereof” (The Broad Institute, Inc., priority 2017, dated 2021).

Protein sequences, listed by entry. Tags and fused reporters are not part of them. Lines headed by an entry give the natural chain unless they say otherwise; changes in a name come on top.
UniProt P49840: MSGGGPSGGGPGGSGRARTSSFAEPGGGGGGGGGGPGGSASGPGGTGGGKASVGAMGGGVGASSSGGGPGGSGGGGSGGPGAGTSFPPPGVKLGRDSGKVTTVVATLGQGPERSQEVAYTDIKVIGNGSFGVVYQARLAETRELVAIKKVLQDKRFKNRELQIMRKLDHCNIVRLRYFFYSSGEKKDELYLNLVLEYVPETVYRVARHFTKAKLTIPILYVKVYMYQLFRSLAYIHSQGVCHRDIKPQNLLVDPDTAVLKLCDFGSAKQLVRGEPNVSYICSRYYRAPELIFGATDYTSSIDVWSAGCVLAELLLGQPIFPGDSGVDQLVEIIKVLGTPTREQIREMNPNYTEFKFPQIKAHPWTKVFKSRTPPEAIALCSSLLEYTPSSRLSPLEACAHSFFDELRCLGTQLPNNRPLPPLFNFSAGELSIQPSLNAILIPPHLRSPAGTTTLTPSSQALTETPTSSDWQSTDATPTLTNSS

The target of this assay is GSK3α (Homo sapiens (Human), UniProt P49840). Briefly: Mobility shift microfluidics assay. Type of assay: biochemical.

`CC1(C)CC(=O)C2=C(C1)Nc1n[nH]cc1[C@]2(C)c1ccccc1` [drawing 169]: the IC50 (usually the midpoint of a concentration-inhibition curve) amounted to 42 nM.
